Molecular target: T1, 5-HT3 receptor (Rattus norvegicus, UniProt P35563)
T1 construct: Brain cortices are obtained from male rats and a membrane fraction prepared by standard techniques; from tissue; host or cells: male rat brain cortex, membrane fraction
Assay: Serotonin (5-HT3) radioligand receptor binding assay, [3H]-GR65630
Experimental: 5-HT3 antagonism can be determined by the radioligand receptor binding assay as described herein and in the in vivo Bezold-Jarisch reflex procedure.
GR65630 binds to the 5-HT3 receptor. Brain cortices are obtained from male rats and a membrane fraction prepared by standard techniques. 0.04 mg of membrane prep is incubated with 0.2 nM [^3 H]-GR656630 for 60 minutes at 22° C. […] Membranes are filtered and washed 3 times and the filters are counted to determine [3H]-GR65630 specifically bound.*
*Literature References: Kilpatrick GJ, Jones BJ and Tyers MG. Identification and distribution of 5-HT3 receptors in rat brain using radioligand binding. Nature, 330 : 746-748, 1987.

Sequences of proteins named here, by UniProt entry; tags and fusion partners are left off. Residues count along the entry.
UniProt P35563, 24-483: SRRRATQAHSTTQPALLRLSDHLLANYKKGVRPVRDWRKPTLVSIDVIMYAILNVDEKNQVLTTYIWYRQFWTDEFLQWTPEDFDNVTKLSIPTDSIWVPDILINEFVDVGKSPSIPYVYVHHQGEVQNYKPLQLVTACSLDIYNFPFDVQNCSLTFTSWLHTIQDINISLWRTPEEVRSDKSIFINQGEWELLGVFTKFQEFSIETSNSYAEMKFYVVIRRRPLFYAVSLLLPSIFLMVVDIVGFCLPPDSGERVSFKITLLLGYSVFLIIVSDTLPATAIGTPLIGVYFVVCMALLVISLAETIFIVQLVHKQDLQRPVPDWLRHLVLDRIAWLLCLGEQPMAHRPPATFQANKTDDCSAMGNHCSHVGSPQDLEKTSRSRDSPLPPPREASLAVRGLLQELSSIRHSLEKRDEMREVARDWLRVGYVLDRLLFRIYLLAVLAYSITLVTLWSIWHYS

Q: What does the source list for NCCc1c[nH]c2ccc(O)cc12 [Example 5-HT, Serotonin]?
A: IC50: 122 nM; Ki: 390 nM

Reference: US5196547A, “Meso-azacyclic amides of imidazopyridine carboxylic acids and analogs thereof” (G. D. Searle & Co., priority 1992, dated 1993)
